Assay [1] relates to patients with elevated cholesterol and triglycerides. As to conditions: cited from earlier work.
Assay [2] has as its system patients with hyperlipidemia. Particulars: for LDL / triglycerides / HDL / total cholesterol: fasting serum, after 6 weeks; for LDL: N 0-99; for triglycerides: N 0-149; for HDL: N >39; for total cholesterol: N 100-199.

Read-outs that look alike come from different tables or passages of the source.

Turning to Pantethine, in assay [1] (600 and 900 mg/d doses, individuals with greatly or moderately elevated levels of blood lipids), the LDL cholesterol entry was “statistically significant lowering”. Further, in assay [1] (multiple clinical trials, daily intakes 600 to 1200 mg/day), the LDL cholesterol decreased is 12%. Moreover, the LDL in assay [2] (Patient No. 1) was found to be 75 mg/dL; in assay [2] (Patient No. 2), 177 mg/dL; in assay [2] (Patient No. 3) it was 121 mg/dL; in assay [2] (Patient No. 4), 203 mg/dL; in assay [2] (Patient No. 5), 71 mg/dL. The triglycerides in assay [2] (Patient No. 1) worked out at 228 mg/dL; in assay [2] (Patient No. 2), 237 mg/dL; in assay [2] (Patient No. 3), 164 mg/dL; in assay [2] (Patient No. 4), 314 mg/dL; in assay [2] (Patient No. 5), 220 mg/dL. Further, the HDL in assay [2] (Patient No. 1) is 48 mg/dL; in assay [2] (Patient No. 2), 38 mg/dL; in assay [2] (Patient No. 3), 44 mg/dL; in assay [2] (Patient No. 4), 42 mg/dL; in assay [2] (Patient No. 5), 43 mg/dL. Also, the total cholesterol in assay [2] (Patient No. 1, pantethine 300 mg PO BID, berberine 250 mg PO BID) amounted to 169 mg/dL; in assay [2] (Patient No. 2), 279 mg/dL; in assay [2] (Patient No. 3), 181 mg/dL; in assay [2] (Patient No. 4), 244 mg/dL; in assay [2] (Patient No. 5) it was 162 mg/dL. Besides, the “total serum cholesterol, LDL, triglycerides and HDL” value in assay [2] (all five patients, over baseline) is recorded as “improvement”.

(Values after patent US20150258078A1, “COMPOSITIONS CONTAINING BERBERINE AND PANTETHINE AND METHODS FOR TREATMENT OF LIPID METABOLISM DISORDERS” (priority 2014, published 2015).)
